{"source": "paper PMC11228022", "about": "(Signal Transduction and Targeted Therapy, 2024)", "assay": "Pharmacokinetic study, stomach and plasma concentrations", "format": "in vivo, C57BL/6 mice", "settings": "both sexes, C57BL/6, mouse, plasma; single oral 30 mg/kg; read-out: maximum concentration (Cmax) in plasma", "data": [{"smiles": "C/C=C/COc1cc2c(cc1OC)-c1c(C/C=C/C)c3ccc(OC)c(OC)c3c[n+]1CC2", "note": "[Compound 8]", "values": [{"measurement": "Cmax", "result": "< 100", "unit": "ng/mL"}]}]}
